# Assay results reported in patent publication US4263305A, “Novel pyridiniumaldoximes having micellar characteristics” (dated 1981).
# How the values were obtained:
# [1] = Kinetics of reaction of pyridiniumaldoximes with diethyl p-nitrophenyl phosphate (first order rate constants, half-lives); conditions: for concentration-rate profile (observed first order rate constant vs concentration): carbonate-bicarbonate buffer; for factor of rate increase on addition of CTAB: CTAB 3×10^-3 M; for kobs'/Ox^- / kobs × 10^4, observed rate constant / kobs' × 10^4, observed rate constant corrected for hydrolysis: oxime 2 × 10^-3 M; for kobs × 10^4, observed rate constant / kobs' × 10^4, observed rate constant corrected for hydrolysis: printed values × 10^4
# [2] = Critical micelle concentration (cmc) / micellar concentration; conditions: for critical micelle concentration: carbonate buffer, 25°±0.2° C., Raman peak of water at 478 nm; for cmc in the reaction medium: carbonate-bicarbonate buffer, pH 9.3, μ=0.5
# [3] = pKa determination, spectrophotometric; conditions: 25° C.
# [4] = Solubility determination: molar absorptivities; conditions: 295 nm; ethanol/pH 9.3 carbonate buffer (50:50 v/v)
# [5] = micellar model, from slope and intercept of plot, pH 9.3, μ=0.5
smiles,measurement,setting,value
CCCCCCCCCCCC[n+]1cccc(C=NO)c1,rate of reaction at the cmc,[1],observed rate increase was coincident with the formation of micelles
same,t1/2 of diethyl p-nitrophenyl phosphate,[1]; (B) 1.4 × 10^-3 alone,0.467 h
same,t1/2 of diethyl p-nitrophenyl phosphate,[1]; (B) 2 × 10^-3 alone,0.167 h
same,t1/2 of diethyl p-nitrophenyl phosphate,[1]; (B) 6 × 10^-4 alone,41.5 h
same,concentration-rate profile (observed first order rate constant vs concentration),"[1]; pH 9.3, μ=0.5",marked deviation from linearity in the concentration-rate profile
same,bimolecular rate constant,"[1]; concentration of B 6×10^-4 M, carbonate-bicarbonate buffer pH 9.3, μ=0.5, 25°C",0.015 M⁻¹ s⁻¹
same,bimolecular rate constant (compared with A),"[1]; concentrations of B ≤ 2×10^-4 M, pH 9.3, μ=0.5",equal to that of A within experimental error
same,quotient of k'obs and the oximate ion concentration,"[1]; different pH, micellar medium",a constant
same,"K/N (K binding constant, N aggregation number)",[1]; [5],56 M⁻¹
same,"km, reaction rate constant in the micellar phase",[1]; [5],0.0106 s⁻¹
same,factor of rate increase on addition of CTAB,[1]; oxime 1×10^-3 M,3
same,factor of rate increase on addition of CTAB,[1]; oxime 1×10^-4 M,82
same,factor of rate increase on addition of CTAB,[1]; oxime 3×10^-3 M,less than 2
same,kobs'/Ox^-,[1]; pH 8.3,1.32
same,"kobs × 10^4, observed rate constant",[1]; pH 8.3,2.12
same,"kobs' × 10^4, observed rate constant corrected for hydrolysis",[1]; pH 8.3,2.12
same,kobs'/Ox^-,[1]; pH 9.3,0.69
same,"kobs × 10^4, observed rate constant",[1]; pH 9.3,6.60
same,"kobs' × 10^4, observed rate constant corrected for hydrolysis",[1]; pH 9.3,6.59
same,kobs'/Ox^-,[1]; pH 10.6,0.67
same,"kobs × 10^4, observed rate constant",[1]; pH 10.6,12.7
same,"kobs' × 10^4, observed rate constant corrected for hydrolysis",[1]; pH 10.6,12.6
same,kobs'/Ox^-,[1]; pH 11.5,0.68
same,"kobs × 10^4, observed rate constant",[1]; pH 11.5,14.4
same,"kobs' × 10^4, observed rate constant corrected for hydrolysis",[1]; pH 11.5,13.4
same,kobs'/Ox^-,[1]; pH 12.2,0.77
same,"kobs × 10^4, observed rate constant",[1]; pH 12.2,17.8
same,"kobs' × 10^4, observed rate constant corrected for hydrolysis",[1]; pH 12.2,15.3
same,effect of added CTAB on micellar volume,"[2]; 3×10^-3 M CTAB, oxime 1×10^-3 M",more than doubles the micellar volume
same,effect of added CTAB on micellar volume,"[2]; CTAB added, oxime 3×10^-3 M",percentage increase in micellar volume upon the addition of CTAB is less
same,critical micelle concentration,[2],0.63 mM
same,cmc in the reaction medium,[2],0.6 mM
same,micellar concentration,[2]; solution containing 1×10^-3 M 1-n-dodecyl-3-pyridiniumaldoxime iodide,approximately 4×10^-4 M
same,pKa ± S. E.,"[3]; oxime 2 × 10^-3 M, above CMC, 2000 µM",9.34
same,pKa ± S. E.,"[3]; oxime 5 × 10^-5 M, 3 × 10^-3 M Brij added, 50 µM",9.65
same,pKa ± S. E.,"[3]; oxime 5 × 10^-5 M, 3 × 10^-3 M CTAB added, 50 µM",9.15
same,pKa ± S. E.,"[3]; oxime 5 × 10^-5 M, below CMC, 50 µM",9.18
same,molar absorptivity ε295,[4],12900 M⁻¹ cm⁻¹
CCCCCCC[n+]1cccc(C=NO)c1,t1/2 of diethyl p-nitrophenyl phosphate,[1]; (A) 4 × 10^-2 alone,0.667 h
same,t1/2 of diethyl p-nitrophenyl phosphate,[1]; (A) 4 × 10^-4 alone,51.5 h
same,t1/2 of diethyl p-nitrophenyl phosphate,[1]; (A) 9.1 × 10^-4 alone,37.3 h
same,concentration-rate profile (observed first order rate constant vs concentration),"[1]; pH 9.3, μ=0.5",linear increase in the observed first order rate constant with increasing concentration
same,"bimolecular rate constant, k2'=kobs/[A]","[1]; concentration range 10^-4 - 4×10^-2 M, carbonate-bicarbonate buffer pH 9.3, μ=0.5, 25°C",1.2×10^-2 ±0.0008 M^-1 sec^-1
same,critical micelle concentration,[2],1.95 mM
same,cmc in the reaction medium,[2],2 mM
same,molar absorptivity ε295,[4],12100 M⁻¹ cm⁻¹
CCCCCCCCCCCCCCCC[N+](C)(C)C.[Br-],additional micellar concentration provided by CTAB,[2]; 3×10^-3 M CTAB added to 1×10^-3 M 1-n-dodecyl-3-pyridiniumaldoxime iodide,approximately 5×10^-4 M
same,CMC of CTAB,[2]; footnote to Table III,2.5 mM
